Data set [1] concerns adult male Sprague—Dawley rats. Briefly: Arterial blood gas measurements and A-a gradient. The class given is in vivo, rat. To be noted: fentanyl 75 μg/kg IV in GSHee (100 μmol/kg IV)-pretreated rats; versus vehicle.
Data set [2] deals with adult male Sprague—Dawley rats. Put plainly: Righting reflex (duration of fentanyl-induced impairment).
The subject of data set [3] is adult male Sprague—Dawley rats. Put plainly: Body temperature (BT), rectal thermistor probe. The note with it: for Body temperature, Post-fentanyl: GSHee 100 μmol/kg IV-treated rats; for Body temperature, Change from Pre: GSHee-treated rats.
In data set [4] the test system is adult male Sprague—Dawley rats. Put plainly: Radiant heat tail-flick (TF) antinociception assay. The class given is in vivo, rat. The note with it: fentanyl 75 μg/kg IV after GSHee 100 μmol/kg IV; versus vehicle-pretreated.
Where [5] appears, read: 5 min after fentanyl 75 μg/kg IV.
Setting [6] is: 10 min after fentanyl 75 μg/kg IV.
The mark [7] stands for this setting: 15 min after fentanyl 75 μg/kg IV.
The mark [8] stands for this setting: 20 min after fentanyl 75 μg/kg IV.
[9] abbreviates: 25 min after fentanyl 75 μg/kg IV.
[10] abbreviates: 30 min after fentanyl 75 μg/kg IV.

Regarding L-glutathione ethyl ester, the “fentanyl-induced changes in ABG chemistry and A-a gradient” value in data set [1] is “markedly smaller in magnitude and of substantially shorter duration”. For the same substance, the “duration of the pronounced sedation elicited by fentanyl” value in data set [2] (GSHee-treated versus vehicle-treated rats) is “very similar”. Besides, the “full return of the righting-reflex” value in data set [2] (fentanyl 75 μg/kg IV in GSHee (100 μmol/kg, IV)-treated rats, n=12) turned out to be 54 ± 9 min. The “Body temperature, Post-fentanyl” value in data set [3] (setting [5]) was 37.9 ± 0.1; in data set [3] (setting [6]), 38.0 ± 0.1; in data set [3] (setting [7]), 38.0 ± 0.1; in data set [3] (setting [8]) it was 38.2 ± 0.1; in data set [3] (setting [9]), 38.2 ± 0.1; in data set [3] (setting [10]), 38.2 ± 0.1. The “Body temperature, Change from Pre” value in data set [3] (setting [5]) amounted to 0.06 ± 0.09 °C; in data set [3] (setting [6]) it was 0.17 ± 0.11 °C; in data set [3] (setting [7]), 0.13 ± 0.10 °C; in data set [3] (setting [8]), 0.31 ± 0.09 °C; in data set [3] (setting [9]) it was 0.33 ± 0.10 °C; in data set [3] (setting [10]), 0.31 ± 0.08 °C. In addition, the “duration of the fentanyl-induced antinociception” value in data set [4] is “greater in GSHee-pretreated rats than in the vehicle-pretreated rats”.

For the origin of these results see patent US12011428B2, “Compositions and methods for stimulating ventilatory and/or respiratory drive” (priority 2022, dated 2024).
